Laboratory results published in patent US20200361914A1, “SUBSTITUTED BENZENE AND 6,5-FUSED BICYCLIC HETEROARYL COMPOUNDS” (Epizyme, Inc., priority 2014, published 2020).

Chains of the proteins cited; added tags and fusions are not shown.
UniProt Q15910, whole entry: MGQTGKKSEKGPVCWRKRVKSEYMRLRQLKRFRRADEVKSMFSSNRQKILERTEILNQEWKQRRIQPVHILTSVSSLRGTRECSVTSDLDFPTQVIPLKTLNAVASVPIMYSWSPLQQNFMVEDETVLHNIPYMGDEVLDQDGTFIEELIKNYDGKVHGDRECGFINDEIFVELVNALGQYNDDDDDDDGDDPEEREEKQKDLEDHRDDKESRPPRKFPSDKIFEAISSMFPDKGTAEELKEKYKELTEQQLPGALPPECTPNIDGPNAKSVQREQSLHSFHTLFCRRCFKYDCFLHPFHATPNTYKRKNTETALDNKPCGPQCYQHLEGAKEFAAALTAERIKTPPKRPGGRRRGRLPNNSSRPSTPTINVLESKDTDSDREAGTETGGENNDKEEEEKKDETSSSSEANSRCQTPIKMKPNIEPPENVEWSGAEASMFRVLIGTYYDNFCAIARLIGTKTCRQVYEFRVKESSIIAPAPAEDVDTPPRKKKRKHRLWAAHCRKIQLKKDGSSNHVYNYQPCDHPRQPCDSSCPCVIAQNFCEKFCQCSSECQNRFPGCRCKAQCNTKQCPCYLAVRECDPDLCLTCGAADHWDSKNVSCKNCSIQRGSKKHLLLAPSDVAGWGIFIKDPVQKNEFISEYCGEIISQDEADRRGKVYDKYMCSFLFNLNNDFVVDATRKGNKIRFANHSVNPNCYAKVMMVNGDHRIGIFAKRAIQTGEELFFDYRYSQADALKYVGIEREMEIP
UniProt Q15910, whole entry Y641F: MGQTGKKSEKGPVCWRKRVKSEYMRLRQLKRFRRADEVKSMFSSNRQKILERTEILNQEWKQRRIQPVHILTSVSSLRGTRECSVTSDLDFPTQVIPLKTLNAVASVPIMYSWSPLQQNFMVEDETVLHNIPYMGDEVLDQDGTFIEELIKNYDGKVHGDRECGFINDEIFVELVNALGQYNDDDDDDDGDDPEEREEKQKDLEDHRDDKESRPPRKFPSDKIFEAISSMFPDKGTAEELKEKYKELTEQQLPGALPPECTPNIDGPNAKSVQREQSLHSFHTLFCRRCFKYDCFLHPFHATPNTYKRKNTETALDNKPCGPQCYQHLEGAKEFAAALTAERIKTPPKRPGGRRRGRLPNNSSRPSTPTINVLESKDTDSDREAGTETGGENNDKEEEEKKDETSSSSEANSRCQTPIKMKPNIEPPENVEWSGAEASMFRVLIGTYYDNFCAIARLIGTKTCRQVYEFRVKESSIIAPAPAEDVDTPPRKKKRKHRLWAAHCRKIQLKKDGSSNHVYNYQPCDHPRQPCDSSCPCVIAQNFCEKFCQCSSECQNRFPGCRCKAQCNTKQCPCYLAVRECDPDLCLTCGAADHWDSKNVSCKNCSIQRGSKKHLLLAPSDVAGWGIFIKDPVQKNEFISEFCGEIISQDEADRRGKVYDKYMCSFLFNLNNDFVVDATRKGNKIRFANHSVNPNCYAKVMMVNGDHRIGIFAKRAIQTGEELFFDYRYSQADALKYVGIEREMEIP

Tests used:
[1] = target: wild-type PRC2 enzyme (EZH2 WT) (Homo sapiens, UniProt Q15910); assay: PRC2 enzyme assay on peptide substrate, wild-type EZH2
[2] = target: Y641 mutant PRC2 enzyme (EZH2 Y641) (Homo sapiens, UniProt Q15910, Y641F); assay: PRC2 enzyme assay on peptide substrate, Y641 mutant EZH2

In the case of `CCC(C)n1cc(C)c2c(C(=O)NCc3c(C)n(CC)[nH]c3=O)cc(-c3ccc(N4CCNCC4)nc3)cc21` (centres unmarked) [compound 30, 1-(sec-butyl)-N-((1-ethyl-5-methyl-3-oxo-2,3-dihydro-1H-pyrazol-4-yl)methyl)-3-methyl-6-(6-(piperazin-1-yl)pyridin-3-yl)-1H-indole-4-carboxamide], the IC50 [1] is reported as 1 to 10 µM and the IC50 [2] is reported as 0.1 to 1 µM.
